Assay results as given in ChEMBL document CHEMBL1138683 (J Med Chem, 2004).

Test system: Mus musculus
Test: Anticonvulsant activity administered intra peritoneally to mouse for protective index of subcutaneous metrazol test
Assay type: functional

CCCC(CCC)C(=O)O [VALPROIC ACID]
Activity: 1.8
